This is a sample that favours compounds with a hit; in the whole collection about 0.91% have one here.
PGC1a acetyl inh = PGC1a acetylation modulation, inhibitor mode; U2OS PGC1a acetylation, AlphaScreen anti-acetyl-lysine; with virally co-expressed GCN5 acetyltransferase; inhibition, % at 15.6 µM; actives 0.17% (n = 350,000); AID 651687;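 active = every replicate shows inhibition of at least 40%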
iPSC survival up = enhancers of human iPSC single-cell survival | hiPSC single-cell survival, ATPlite luminescence; 100% = ROCK inhibitor wells, 0% = DMSO | survival enhancement, % at 20 µM | actives 0.044% (n = 360,000); in the data active = survival enhancement above about 18%;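 also: cells exposed to compounds for 16 hours before the ATP read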
UUG fidelity = modulators of start codon recognition fidelity in yeast; AID 602363; activity score, % at 18.7 µM; S. cerevisiae UUG-firefly luciferase reporter, luminescence/redox ratio; actives 0.13% (n = 350,000);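 active = replicate mean at a twofold rise or more, about +100% in these data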;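 note: firefly luciferase made from a UUG start codon reports start codon fidelity; reporter light over untreated wells divided by growth signal over untreated wells; some hits fall short of that in this replicate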
FN deposit inh = fibronectin deposition inhibition. inhibition, % at 12.6 µM. actives 0.086% (n = 350,000). AH1F fibroblasts, Alexa488-fibronectin deposition fluorescence, overnight;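 active = mean inhibition across replicates of 30% or more, regardless of how many single replicates reach that level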
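Material – AH1F fibroblast monolayer, labelled fibronectin deposition · Reagent – labelled fibronectin 24 nM · Timing – 1 h adhesion, overnight exposure · Measured by – fluorescence at 485 nm excitation, 525 nm emission · Read-out – inhibition of fibronectin deposition signal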
Statin myotox sup = protects C2C12 myotubes from simvastatin toxicity; actives 0.78% (n = 330,000); rescue of ATP level, % at 7.49 µM; ATP luminescence, 48 h; scaled: DMSO 0, geranylgeraniol control 100;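 active = mean ATP rescue above about 67%, or every replicate alone reaching that limit, limit read from the data, passing the limit was not always enough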;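 also: myotubes were challenged with 10 µM simvastatin during compound exposure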
Of the large screens only hits and unclear results are named; the others gave an inactive call.

C[C@H]1CN([C@@H](C)CO)C(=O)c2cc(NC(=O)Nc3ccc4c(c3)OCO4)ccc2O[C@H]1CN(C)C(=O)Nc1ccc(C(F)(F)F)cc1	none (no result: iPSC survival up)
CCOC(=O)c1nn(C23CC4CC(CC(C4)C2)C3)c2c1C(=O)N(c1ccc(C)cc1)C2=O	Statin myotox sup 121 (no result: UUG fidelity, FN deposit inh)
COC(=O)c1nn(C23CC4CC(CC(C4)C2)C3)c2c1C(=O)N(c1ccc(Br)cc1)C2=O	Statin myotox sup 68 (no result: FN deposit inh)
O=C(COc1ncnc2ccccc12)c1ccc2c(c1)OCCO2	Statin myotox sup 72 (no result: UUG fidelity, FN deposit inh)
CN1CCC(=NNC(=O)CN(c2ccc(Oc3ccccc3)cc2)S(C)(=O)=O)CC1	Statin myotox sup 110
COc1cc(/C=C(/C(=O)c2cccs2)c2nc3ccccc3[nH]2)cc(OC)c1O	Statin myotox sup 120
COc1ccc(C(=O)N/C(=C/c2cccs2)c2nc3ccccc3[nH]2)cc1OC	none (no result: PGC1a acetyl inh, UUG fidelity, Statin myotox sup)
COC(=O)C1=C(C)N(c2ccc(F)cc2)/C(=C/c2ccc(O)cc2)C1=O	Statin myotox sup 115
Cc1ccc(S(=O)(=O)N(C)C[C@H]2Oc3c(NC(=O)Nc4ccccc4)cccc3C(=O)N([C@H](C)CO)C[C@H]2C)cc1	Statin myotox sup 117 (no result: iPSC survival up, FN deposit inh)
Cc1ccc(S(=O)(=O)N(C)C[C@H]2Oc3c(NC(=O)Nc4ccccc4)cccc3C(=O)N([C@@H](C)CO)C[C@H]2C)cc1	Statin myotox sup 123 (no result: iPSC survival up, FN deposit inh)
C[C@@H]1CN([C@H](C)CO)C(=O)c2cccc(NC(=O)Nc3ccccc3)c2O[C@@H]1CN(C)S(=O)(=O)c1ccccc1	Statin myotox sup 65 (no result: iPSC survival up, FN deposit inh)
Cc1ccc(S(=O)(=O)N(C)C[C@H]2Oc3c(NC(=O)Nc4ccc(F)cc4)cccc3C(=O)N([C@@H](C)CO)C[C@@H]2C)cc1	none (no result: iPSC survival up, FN deposit inh)
C[C@@H]1CN([C@@H](C)CO)C(=O)c2cccc(NC(=O)Nc3ccccc3)c2O[C@@H]1CN(C)S(=O)(=O)c1ccccc1	none (no result: iPSC survival up, FN deposit inh)
Cc1ccc(S(=O)(=O)N(C)C[C@@H]2Oc3c(NC(=O)Nc4ccccc4)cccc3C(=O)N([C@@H](C)CO)C[C@@H]2C)cc1	none (no result: iPSC survival up, FN deposit inh)
C[C@@H]1CN([C@@H](C)CO)C(=O)c2cccc(NC(=O)Nc3ccccc3)c2O[C@@H]1CN(C)S(=O)(=O)c1ccc(F)cc1	Statin myotox sup 74 (no result: iPSC survival up, FN deposit inh)
CCC(=O)NC[C@H]1N[C@H](CO)[C@@H]1c1ccc(-c2cccnc2)cc1	none (no result: PGC1a acetyl inh, iPSC survival up, UUG fidelity, Statin myotox sup)
CCCCCCC1CC(=O)NC(=S)N1 (stereo unspecified)	PGC1a acetyl inh 63 (no result: UUG fidelity, Statin myotox sup)
O=C1CC(c2ccccc2)NC(=S)N1 (stereo unspecified)	none (no result: PGC1a acetyl inh)
COc1ccc(C#Cc2ccc([C@@H]3[C@H]4CN(C(=O)c5ccncc5)CCCCN4[C@H]3CO)cc2)cc1	none (no result: iPSC survival up, FN deposit inh)
COc1ccc(C#Cc2ccc([C@H]3[C@H]4CN(C(=O)c5ccncc5)CCCCN4[C@H]3CO)cc2)cc1	Statin myotox sup 98 (no result: iPSC survival up, FN deposit inh)
O=C(C[C@@H]1C[C@@H]2c3cc(NC(=O)Nc4ccccc4F)ccc3O[C@@H]2[C@@H](CO)O1)NCc1ccc(Oc2ccccc2)cc1	PGC1a acetyl inh 84 (no result: iPSC survival up)
O=C(C[C@@H]1C[C@H]2c3cc(NC(=O)Nc4ccccc4F)ccc3O[C@H]2[C@H](CO)O1)NCc1ccc(Oc2ccccc2)cc1	none (no result: iPSC survival up)
O=C(C[C@H]1CC[C@@H](NC(=O)c2ccc3c(c2)OCO3)[C@H](CO)O1)NCc1ccc(Oc2ccccc2)cc1	Statin myotox sup 68 (no result: iPSC survival up, UUG fidelity)
O=C(C[C@H]1C[C@@H]2c3cc(NC(=O)C4CCC4)ccc3O[C@@H]2[C@@H](CO)O1)NCc1ccc(-c2ccccc2)cc1	none (no result: iPSC survival up)
O=C(C[C@H]1C[C@H]2c3cc(NC(=O)C4CCC4)ccc3O[C@H]2[C@H](CO)O1)NCc1ccc(-c2ccccc2)cc1	PGC1a acetyl inh 64 (no result: iPSC survival up)
CCCNC(=O)C[C@@H]1C[C@H]2c3cc(NC(=O)CC4CC4)ccc3O[C@H]2[C@@H](CO)O1	none (no result: iPSC survival up)
CCCNC(=O)C[C@@H]1C[C@H]2c3cc(NC(=O)CC4CC4)ccc3O[C@H]2[C@H](CO)O1	UUG fidelity 139 (no result: iPSC survival up)
COCC(=O)Nc1ccc2c(c1)C(=O)N(C)[C@H]1CC[C@H](CC(=O)Nc3ccccc3F)O[C@@H]1CO2	none (no result: iPSC survival up, FN deposit inh)
COc1cccc(S(=O)(=O)Nc2ccc3c(c2)[C@H]2C[C@@H](CC(=O)O)O[C@H](CO)[C@H]2O3)c1	UUG fidelity 37 (no result: iPSC survival up)
COc1cccc(S(=O)(=O)N[C@H]2CC[C@H](CC(=O)NCc3ccc(F)cc3)O[C@@H]2CO)c1	PGC1a acetyl inh 55 (no result: iPSC survival up, FN deposit inh)
C[C@@H]1CN([C@H](C)CO)C(=O)c2cccc(NS(=O)(=O)c3cn(C)cn3)c2O[C@H]1CN(C)Cc1ccc(C(=O)Nc2ccccc2N)cc1	none (no result: iPSC survival up, UUG fidelity, Statin myotox sup)
O=C(CSc1nnc(-c2ccco2)n1Cc1ccccc1)c1ccccc1	none (no result: FN deposit inh)
CCn1c(SCC(=O)NCc2cccs2)nnc1-c1ccco1	Statin myotox sup 105
CCn1c(SCC(=O)NCc2cccs2)nnc1-c1ccncc1	none (no result: FN deposit inh)
Cc1ccc(C(=O)CSc2nnc(-c3ccco3)n2Cc2ccccc2)cc1	Statin myotox sup 83
CC(C)NC(=O)N(C)C[C@@H]1OCCCC[C@H](C)Oc2ccc(N(C)C)cc2C(=O)N([C@H](C)CO)C[C@H]1C	none (no result: iPSC survival up, UUG fidelity, Statin myotox sup)
O=[N+]([O-])c1c(NCCCO)cc(Sc2nc3ccccc3s2)c2nonc12	PGC1a acetyl inh 58 (no result: FN deposit inh)
CCC(=O)OCCNc1cc(Sc2nc3ccccc3s2)c2nonc2c1[N+](=O)[O-]	Statin myotox sup 102 (no result: FN deposit inh)
Cc1nnc(Sc2cc(NCCCO)c([N+](=O)[O-])c3nonc23)s1	none (no result: UUG fidelity, Statin myotox sup)
O=C(Cc1cccc(C(F)(F)F)c1)Nc1ccc(S(=O)(=O)N2CCCC2)cc1	none (no result: PGC1a acetyl inh)
Cc1cccc(OCCC(=O)Nc2ccc(S(=O)(=O)N3CCCC3)cc2)c1	Statin myotox sup 109 (no result: FN deposit inh)
O=C(COc1cccc(C(F)(F)F)c1)Nc1ccc(S(=O)(=O)N2CCCC2)cc1	Statin myotox sup 116 (no result: FN deposit inh)
Nn1c(SCC(=O)Nc2ccc(S(=O)(=O)N3CCCC3)cc2)nnc1C(F)(F)F	Statin myotox sup 107 (no result: FN deposit inh)
Cn1cnnc1SCC(=O)Nc1ccc(S(=O)(=O)N2CCCC2)cc1	none (no result: FN deposit inh)
C[C@@H]1CN([C@@H](C)CO)C(=O)c2cc(NS(C)(=O)=O)ccc2O[C@@H]1CN(C)CC1CCCCC1	none (no result: iPSC survival up)
CC(C)NC(=O)N[C@H]1CC[C@@H](CCN)O[C@H]1CO	none (no result: iPSC survival up, UUG fidelity)
O=C(C[C@H]1C=C[C@H](NC(=O)c2ccc3c(c2)OCO3)[C@H](CO)O1)NCc1ccc(Oc2ccccc2)cc1	none (no result: iPSC survival up, UUG fidelity, FN deposit inh, Statin myotox sup)
Cc1cccc(NC(=O)C2CCCN2C(=O)OCC(C)C)c1 (stereo unspecified)	none (no result: PGC1a acetyl inh, Statin myotox sup)
COc1ccc(C)cc1NC(=O)C1CCCN1C(=O)OCc1ccccc1 (stereo unspecified)	Statin myotox sup 132 (no result: FN deposit inh)
CC(=O)c1cccc(NC(=O)N2CCCC2C(=O)Nc2cc(C)ccc2C)c1 (stereo unspecified)	Statin myotox sup 115 (no result: FN deposit inh)
Cc1cccc(NC(=O)C2CCCN2C(=O)OCC(C)C)c1C (stereo unspecified)	Statin myotox sup 91 (no result: FN deposit inh)
CCCNC(=O)N1[C@H](CO)[C@H](c2ccccc2)[C@@H]1CNC(=O)C1CCCC1	none (no result: PGC1a acetyl inh, iPSC survival up, UUG fidelity, Statin myotox sup)
